Marks after values point to notes of the source that are not given here.
Key:
freely-moving rats [1] = test: Tissue O2 saturation (SpO2) analysis after morphine in freely-moving rats; settings: for Cumulative change in sPO2: Post-drug, % change from Pre: 0-15 min post-drug
freely-moving rats [2] = test: Blood pressure and heart rate measurement after morphine in freely-moving rats; settings: morphine 10 mg/kg IV, 0-15 min post-injection; Vehicle group (before vehicle)

SMILES	Cumulative change in sPO2: Morphine, % change from Pre (freely-moving rats [1]; morphine 10 mg/kg IV, 0-15 min after injection, Vehicle group (before vehicle)) [%]	DBP, mmHg: Morphine, % change from Pre (cumulative) (freely-moving rats [2]) [%]	HR/MAP, mmHg/beats/min: Morphine, % change from Pre (cumulative) (freely-moving rats [2]) [%]	Heart rate (HR), beats/min: Morphine, % change from Pre (cumulative) (freely-moving rats [2]) [%]	MAP, mmHg: Morphine, % change from Pre (cumulative) (freely-moving rats [2]) [%]	SBP, MmHg: Morphine, % change from Pre (cumulative) (freely-moving rats [2]) [%]	Cumulative change in sPO2: Post-drug, % change from Pre (freely-moving rats [1]; Tempol 60 mg/kg IV 15 min after morphine 10 mg/kg IV) [%]	Cumulative change in sPO2: Post-drug, % change from Pre (freely-moving rats [1]; Tempol 100 mg/kg IV 15 min after morphine 10 mg/kg IV)
CN1CC[C@]23c4c5ccc(O)c4O[C@H]2[C@@H](O)C=C[C@H]3[C@H]1C5 [Morphine, morphine]	−14.5 ± 3.4	−10.5 ± 4.3	−14.2 ± 6.1	−23.9 ± 5.9	−7.5 ± 3.1	−3.6 ± 2.8	–	–
CC1(C)CC(O)CC(C)(C)N1[O] [Tempol, 4-hydroxy-2,2,6,6-tetramethylpiperidine-N-oxyl]	–	–	–	–	–	–	−9.6 ± 4.0	−4.5 ± 0.6*^,† %
